Source: patent US7922998B2, “Gastrin releasing peptide compounds” (Bracco Imaging S.p.A., priority 2003, dated 2011)

Amino acid sequences for entries named in this document (tags omitted). A change or cut given only in a name is not applied to a line headed by its entry.
UniProt P30550: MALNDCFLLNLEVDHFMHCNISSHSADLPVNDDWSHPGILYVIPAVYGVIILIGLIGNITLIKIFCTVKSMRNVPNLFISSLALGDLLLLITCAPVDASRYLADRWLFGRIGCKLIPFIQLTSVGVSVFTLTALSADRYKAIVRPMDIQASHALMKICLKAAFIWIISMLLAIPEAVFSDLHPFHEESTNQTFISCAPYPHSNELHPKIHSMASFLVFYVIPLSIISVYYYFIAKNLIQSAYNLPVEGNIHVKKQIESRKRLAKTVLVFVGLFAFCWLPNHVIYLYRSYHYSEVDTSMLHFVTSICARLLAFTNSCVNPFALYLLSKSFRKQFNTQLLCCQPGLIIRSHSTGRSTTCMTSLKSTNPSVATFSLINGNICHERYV

Assays:
[1] = biological target: T1, GRP-R (Homo sapiens, UniProt P30550); assay: In vitro competition binding assay with 125I-BBN for GRP-R in PC3 cells (Example XLIII; also the PC3 part of Example LX)
T1 construct: host or cells: PC3 human prostate cancer cells, intact and plated

[2] = biological target: T1, GRP-R; assay: Competition assay of modified BBN analogs with 125I-BBN for GRP-R in PC3 cells (Example LXI); assay type: binding
[3] = test system: PC3 tumor-bearing nude mice
[4] = test system: human PC-3 nude mouse model; assay type: in vivo; conditions: 177Lu-labeled compound, i.v. tail vein, n=4
[5] = Table 1, concentration of compound to inhibit 50% binding of iodinated bombesin to a GRP receptor on cells, unlabeled ligand, unit inferred, read-out: IC50
[6] = Table 13, competition with 125I-BBN for GRP-R in PC3 cells, read-out: IC50
[7] = Table 2, concentration of compound to inhibit 50% binding of iodinated bombesin to a GRP receptor on cells, unit inferred, read-out: IC50
[8] = 177Lu-labeled, 200 μCi/kg i.v., 1 hr
[9] = 177Lu-labeled, 200 μCi/kg i.v., 24 hr
[10] = Table 10, competition with 125I-BBN, PC3 cells, read-out: IC50 (nM) 125I-BBN/PC3
[11] = concentration of compounds to inhibit 50% binding of iodinated bombesin to a GRP receptor on cells, read-out: IC50

Substance: N,N-dimethylglycine-Ser-Cys(Acm)-Gly-8-amino-3,6-dioxaoctanoic acid-Arg-Gly-BBN(7-14) [Compound L22]
- IC50 [1, 5]: 36 nM

Substance: N-[(3β,5β,12α)-3-[[[4,7,10-Tris(carboxymethyl)-1,4,7,10-tetraazacyclododec-1-yl]acetyl]amino]-glycyl-4-aminobenzoyl-L-glutaminyl-L-tryptophyl-L-alanyl-glycyl-L-histidyl-L-phenylalanyl-L-leucinamide [Compound L224]
- IC50 ([2]; Table 17, nM in the table's title, read-out: IC50 PC3/GRP-R): 52 nM

Substance: N,N-dimethylglycine-Ser-Cys(Acm)-Gly-8-amino-3,6-dioxaoctanoic acid-Lys-Gly-BBN(7-14) [Compound L25]
- IC50 [1, 5]: 26 nM

Substance: N,N-dimethylglycine-Ser-Cys(Acm)-Gly-N-4-aminoethyl-N-1-piperazineacetic acid-Lys-BBN(7-14) [Compound L32]
- IC50 [1, 5]: 34 nM

Substance: Pglu-Q-Lys(DO3A-monoamide-G-4-aminobenzoic acid)-LGNQWAVGHLM-NH2 [Compound L218]
- IC50 [2, 6]: 53 nM

Substance: N-[4-[[[[4,7,10-Tris(carboxymethyl)-1,4,7,10 tetraazacyclododec-1-yl]acetyl]glycyl]amino]-L-Lysinyl-(3,6,9)-trioxaundecane-1,11-dicarboxylic acid-3,7-dideoxy-3-aminocholic acid)-L-arginyl-L-glutaminyl-L-triptophyl-L-alanyl-L-valyl-glycyl-L-histidyl-L-leucyl-L-methioninamide [Compound L65]
- IC50 [1, 7]: > 50 nM

Substance: N,N-dimethylglycine-Ser-Cys(Acm)-Gly-5-aminopentanoic acid-BBN (7-14) [RP527, reference compound]
- IC50 ([1]; text b655, unit inferred, read-out: IC50): 0.84 nM

Substance: DO3A-monoamide-8-amino-octanoic acid-BBN (7-14) [reference compound]
- IC50 ([1]; competition binding curves FIGS. 14A-B, 125I-BBN, PC3 cells, 1 h at 4° C., read-out: IC50): 5 nM
- Kidneys, 1 hr [3, 8]: 7.65 % ID/g
- Pancreas, 1 hr [3, 8]: 28.60 % ID/g
- Tumor, 1 hr [3, 8]: 3.66 % ID/g
- Kidneys, 24 hr [3, 9]: 1.03 % ID/g
- Pancreas, 24 hr [3, 9]: 1.01 % ID/g
- Tumor, 24 hr [3, 9]: 1.52 % ID/g

Substance: N,N-dimethylglycine-Ser-Cys(Acm)-Gly-N-1-piperazineacetic acid-Arg-BBN(7-14) [Compound L35]
- IC50 [1, 5]: 26 nM

Substance: N,N-dimethylglycine-Ser-Cys(Acm)-Gly-8-amino-3,6-dioxaoctanoic acid-Asp-Gly-BBN(7-14) [Compound L20]
- IC50 [1, 5]: 37 nM

Substance: N,N-dimethylglycine-Ser-Cys(Acm)-Gly-N-1-piperazineacetic acid-2,3-diaminopropionic acid BBN(7-14) [Compound L37]
- IC50 [1, 5]: 23 nM

Substance: N-[(3β,5β,12α)-3-[[[[[4,7,10-Tris(carboxymethyl)-1,4,7,10-tetraazacyclododec-1-yl]acetyl]amino]acetyl]amino]-[3′-amino-biphenyl-3-carboxyl]-L-glutaminyl-L-tryptophyl-L-alanyl-L-valyl-glycyl-L-histidyl-L-leucyl-L-methioninamide [Compound L207]
- IC50 [1, 10]: 3 nM
- IC50 [1, 11]: 2.5 nM

Substance: N,N-dimethylglycine-Ser-Cys(Acm)-Gly-8-amino-3,6-dioxaoctanoic acid-Ser-Gly-BBN(7-14) [Compound L21]
- IC50 [1, 5]: 46 nM

Substance: N,N-dimethylglycine-Ser-Cys(Acm)-Gly-N-1-piperazineacetic acid-Ser-BBN(7-14) [Compound L34]
- IC50 [1, 5]: 38 nM

Substance: N-[(3β,5β,12α)-3-[[[4,7,10-Tris(carboxymethyl)-1,4,7,10-tetraazacyclododec-1-yl]acetyl]amino]-glycyl-4-aminobenzoyl-L-leucyl-L-tryptophyl-L-alanyl-L-threonyl]-glycyl-L-histidyl-L-phenylalanyl-L-methioninamide [Compound L227]
- IC50 [1, 10]: 28 nM
- IC50 [2, 6]: 39 nM
- IC50 ([2]; Table 14, unit not in the table, nM per b770/Tables 10 and 13, read-out: IC50 PC3/GRP-R): 28 nM

Substance: N,N-dimethylglycine-Ser-Cys(Acm)-Gly-Asp-8-amino-3,6-dioxaoctanoic acid-Gly-BBN(7-14) [Compound L19]
- IC50 [1, 5]: > 50 nM

Substance: DO3A-monoamide-8-amino-3,6-dioxaoctanoic acid-diaminopropionic acid-BBN(7-14) [Compound L78]
- IC50 [1, 5]: 35 nM

Substance: N-[4-[[4-Bis[2-[[[4,7,10-tris(carboxymethyl)-1,4,7,10-tetraazacyclododec-1-yl]acetyl]amino]ethyl]amino-1,4-dioxobutyl]amino]benzoyl]-L-glutaminyl-L-tryptophyl-L-alanyl-L-valyl-glycyl-L-histidyl-L-leucyl-L-methioninamide [Compound L244]
- IC50 [1, 11]: > 50 nM

Substance: N,N-dimethylglycine-Ser-Cys(Acm)-Gly-2,3-diaminopropionic acid-8-amino-3,6-dioxaoctanoic acid-BBN(7-14) [Compound L18]
- IC50 [1, 5]: 7.8 nM

Substance: N-[(3β,5β,12α)-3-[[[4,7,10-Tris(carboxymethyl)-1,4,7,10-tetraazacyclododec-1-yl]acetyl]amino]-glycyl-4-aminobenzoyl-D-phenylalanyl-L-glutaminyl-L-tryptophyl-L-alanyl-L-valyl-glycyl-L-histidyl-L-leucyl-L-methioninamide [Compound L214]
- IC50 [2, 6]: 18 nM
- IC50 ([2]; Table 16, unit not in the table, nM per b770/Table 13, read-out: IC50 PC3/GRP-R): 18 nM

Substance: N,N-dimethylglycine-Ser-Cys(Acm)-Gly-8-amino-3,6-dioxaoctanoic acid-8-amino-3,6-dioxaoctanoic acid-Gly-BBN(7-14) [Compound L23]
- IC50 [1, 5]: > 50 nM

Substance: (1R)-1-(Bis{2-[bis(carboxymethyl)amino]ethyl}amino)propane-3-carboxylic acid-1-carboxyl-glycyl-4-aminobenzoyl-L-glutaminyl-L-tryptophyl-L-alanyl-L-valyl-glycyl-L-histidyl-L-leucyl-L-methioninamide [Compound L201]
- IC50 [1, 11]: 36 nM

Substance: N,N-dimethylglycine-Ser-Cys(Acm)-Gly-8-amino-3,6-dioxaoctanoic acid-2,3-diaminopropionic acid-Gly-BBN(7-14) [Compound L59]
- IC50 [1, 5]: 42 nM

Substance: N-[2-S-[[[[[12α-Hydroxy-17α-(1-methyl-3-carboxypropyl)etiocholan-3,3-carbamoylmethoxyethoxyethoxyacetyl]-amino-6-[4,7,10-tris(carboxymethyl)-1,4,7,10-tetraazacyclododec-1-yl]acetyl]amino]acetyl]amino]hexanoyl-L-glutaminyl-L-tryptophyl-L-alanyl-L-valyl-glycyl-L-histidyl-L-leucyl-L-methioninamide [Compound L66]
- IC50 [1, 7]: > 50 nM

Substance: N,N-dimethylglycine-Ser-Cys(Acm)-Gly-Asp-8-amino-3,6-dioxaoctanoic acid-BBN(7-14) [Compound L3]
- IC50 [1, 5]: > 50 nM

Substance: N,N-dimethylglycine-Ser-Cys(Acm)-Gly-8-amino-3,6-dioxaoctanoic acid-2,3-diaminopropionic acid-Gly-BBN(7-14) [Compound L24]
- IC50 [1, 5]: 38 nM

Substance: N,N-dimethylglycine-Ser-Cys(Acm)-Gly-8-amino-3,6-dioxaoctanoic acid-2,3-diaminopropionic acid-BBN(7-14) [Compound L16]
- IC50 [1, 5]: 17 nM

Substance: N-[4-[[[[[4,7,10-Tris(carboxymethyl)-1,4,7,10-tetraazacyclododec-1-yl]acetyl]amino]acetyl]amino]benzoyl]-L-glutaminyl-L-tryptophyl-L-alanyl-L-valyl-glycyl-L-histidyl-L-leucyl-L-methioninamide [Compound L70]
- Blood 1 h % ID ([4]; blood pool, 1 h post injection): 1.23 ± 0.58 % ID
- Blood 24 h % ID ([4]; blood pool, 24 h post injection): 0.02 ± 0.00 % ID
- Blood 7 d % ID ([4]; blood pool, 7 d post injection): 0.00 ± 0.00 % ID
- Carcass 7 d % ID/g ([4]; carcass, 7 d post injection): 0.17 ± 0.01 % ID/g
- Femur 7 d % ID/g ([4]; femur, 7 d post injection): 0.06 ± 0.03 % ID/g
- Tumor 1 h % ID/g ([4]; tumor, 1 h post injection): 5.86 ± 1.91 % ID/g
- Tumor 24 h % ID/g ([4]; tumor, 24 h post injection): 1.82 ± 0.06 % ID/g
- Tumor 7 d % LD/g ([4]; tumor, 7 d post injection): 0.34 ± 0.16 % LD/g
- Urine/Blad 1 h % ID ([4]; urine combined with bladder, 1 h post injection): 43.4 ± 4.3 % ID
- Blood, 1 hr [3, 8]: 0.33 % ID/g
- Kidneys, 1 hr [3, 8]: 6.01 % ID/g
- Liver, 1 hr [3, 8]: 0.77 % ID/g
- Pancreas, 1 hr [3, 8]: 42.34 % ID/g
- Tumor, 1 hr [3, 8]: 6.42 % ID/g
- Blood, 24 hr [3, 9]: 0.03 % ID/g
- Kidneys, 24 hr [3, 9]: 2.31 % ID/g
- Liver, 24 hr [3, 9]: 0.10 % ID/g
- Pancreas, 24 hr [3, 9]: 40.24 % ID/g
- Tumor, 24 hr [3, 9]: 3.50 % ID/g
- uptake in the mouse pancreas compared with control ([3]; in words): much higher
- uptake in the tumor compared with control ([3]; in words, 1 and 24 h): much higher
